Laboratory results as given in PubChem BioAssay AID1224905 (ICCB-Longwood Screening Facility, Harvard Medical School, 2016).
Screen size: about 210,000 compounds; about 880 (0.42%) were called active. The full list was thinned out, with actives kept by preference. Values without a mark were called inactive.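 Rule for the calls: active = replicate mean at 85% of control or lower with very high polarization wells dropped (limit read from the data); inactive = the rest.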

The chains behind the UniProt entries cited, without tags or fusion partners.
UniProt P08753, whole entry, looked up: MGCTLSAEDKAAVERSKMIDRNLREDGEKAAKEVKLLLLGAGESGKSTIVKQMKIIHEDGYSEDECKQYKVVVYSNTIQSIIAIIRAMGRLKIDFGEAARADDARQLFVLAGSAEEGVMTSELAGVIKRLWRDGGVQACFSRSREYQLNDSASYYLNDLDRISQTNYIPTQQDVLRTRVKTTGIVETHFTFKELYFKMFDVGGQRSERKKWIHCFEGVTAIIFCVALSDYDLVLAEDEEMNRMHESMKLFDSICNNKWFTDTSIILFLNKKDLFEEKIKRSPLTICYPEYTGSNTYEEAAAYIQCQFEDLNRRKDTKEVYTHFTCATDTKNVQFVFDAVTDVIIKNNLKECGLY

These molecules were tested against Guanine nucleotide-binding protein G(i) subunit alpha-3 (Rattus norvegicus) (UniProt P08753) (assay: disruptors of GIV-Galphai3 protein-protein interaction – biochemical, fluorescence polarization, FITC-GIV GBA peptide, rat Galphai3, primary screen (AID 1224905;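 note: lower values mean more displacement of the GIV peptide from Galpha-i3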)). Conditions: Galpha-i3/FITC-GIV peptide fluorescence polarization, 90 min, active compounds read low.

SMILES | percent of control (FP)
CN1CCc2c(c(S)[nH]c(=S)c2C#N)C1 | 35% (active)
O=C(NCCN1CCOCC1)c1cc2cccnc2n(Cc2ccccc2)c1=O | 108% [scaled: aluminum fluoride 0%, vehicle 100%]
CCOC(=O)C1CC2CCCN2C12C(=O)N(Cc1ccccc1)c1ccccc12 (stereo not given) | 101%
O=c1c2ccccc2nc(COc2ccc(Cl)cc2)n1-c1ccc(Br)cn1 | 98.1%
Cc1nc2nc(-c3ccc(C(C)(C)C)cc3)nn2c(C)c1CC(=O)N1CCN(CCO)CC1 | 102% [scaled: aluminum fluoride 0%, vehicle 100%]
